# “And” between values parts separate entries of the source, which are not always exact repeats. Identical values can stand only once. The list shows a part of the results, in another mix than the full data. Results filed as inconclusive are left out. The source made the active and inactive calls. Unless noted, calls follow the shape of the dose curve; as a rule, active = well fitted curve in the direction sought with a large enough effect; inconclusive = small, poorly fitted or top-dose-only effect, or another doubt; inactive = no such curve, though single readings can be large; an effect the other way counts as inactive or inconclusive.
# Columns and labels:
# [1] = qHTS assay for small molecule antagonists of the retinoid-related orphan receptor gamma (ROR-gamma) signaling pathway - cell viability counter screen (AID 720652; active = well fitted curve in the direction sought with a large enough effect in the repeat runs; an effect the other way counts as inactive or inconclusive;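 also: CHO reporter cells with doxycycline-induced ROR-gamma expression; compound exposure lasted 16 hr before ATP read; % is scaled to controls: 0 for no effect and ±100 for the full control effect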); conditions: RORgamma reporter cell line viability counter screen; at 92.2 µM (top of the series)
# [2] = qHTS assay for cell viability of HEK293 cells (AID 743288); conditions: ATP luminescence (CellTiter-Glo), 18 h, hits give low values; also: % is scaled to controls: 0 for no effect and ±100 for the full control effect; nearly all actives have a fitted effect of over 50% in size
# Method in brief: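 Readout is luciferase-coupled ATP content (CellTiter-Glo luminescence, 30 min room temperature) as a measure of metabolically competent cells. Parental HEK293 cells were plated 5 h or more before compound addition, then treated 18 h at 37 C.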
# [3] = qHTS assay for cell viability of the p53RE-bla HCT-116 cell line (AID 743292); conditions: p53RE-bla HCT-116 viability, ATP luminescence, 16 h; at 95 µM (top of the series); also: % is scaled to controls: 0 for no effect and ±100 for the full control effect; nearly all actives have a fitted effect of over 55% in size
# Method in brief: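 CellSensor p53RE-bla HCT-116 cells, 4,000/well, preincubated 5 h at 37 C, then exposed to compounds in DMSO for 16 h at 37 C. Viability read as CellTiter-Glo luminescence (intracellular ATP) after 30 min at room temperature.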
# [4] = qHTS of pediatric cancer cell lines to identify multiple opportunities for drug repurposing: Primary screen for TC32 cells (AID 1347089); conditions: TC32 Ewing sarcoma viability, CellTiter-Glo luminescence, 48 h; at 45.8 µM (top of the series) unless noted; also: % is scaled to controls: 0 for no effect and ±100 for the full control effect; nearly all actives have a fitted effect of over 60% in size
# Method in brief: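 Luminescent ATP read-out (CellTiter-Glo) of metabolically active TC32 cells after 48 h exposure. Concentration-response curves came from 11-point (MIPE, 0.78 nM–46 µM) or 8-point (NPC, 0.59 nM–46 µM) primary titrations; follow-up used 11 points.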
# [5] = qHTS of pediatric cancer cell lines to identify multiple opportunities for drug repurposing: Primary screen for DAOY cells (AID 1347090); conditions: DAOY medulloblastoma viability, CellTiter-Glo luminescence, 48 h; at 92.7 µM (top of the series) unless noted;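 also: plate controls were DMSO for no effect and bortezomib for full effect; nearly all actives have a fitted effect of over 55% in size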
# Method in brief: (§1)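 Cell viability, CellTiter-Glo luminescence; 500-1,000 cells/well, 8- or 11-point titration, 48 h compound exposure at 37 degrees C, 5% CO2. Controls: DMSO neutral, bortezomib 2.3 µM final as positive.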
# [6] = qHTS of pediatric cancer cell lines to identify multiple opportunities for drug repurposing: Primary screen for SJ-GBM2 cells (AID 1347091); conditions: SJ-GBM2 viability, CellTiter-Glo luminescence, 48 h; at 46 µM (top of the series) unless noted;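 also: plate controls were DMSO neutral control for no effect and bortezomib for full effect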
# Method in brief: as §1
# [7] = qHTS of pediatric cancer cell lines to identify multiple opportunities for drug repurposing: Primary screen for A673 cells (AID 1347092); conditions: A673 Ewing sarcoma viability, CellTiter-Glo ATP luminescence, 48 h; at 46 µM (top of the series) unless noted; also: % is scaled to controls: 0 for no effect and ±100 for the full control effect; nearly all actives have a fitted effect of over 45% in size
# Method in brief: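 Cell viability of A673 measured by CellTiter-Glo ATP luminescence after 48 hours compound exposure. Dilution series spanned 0.78 nM to 46 µM (MIPE, 11-point) or 0.59 nM to 46 µM (NPC, 8-point); bortezomib 2.3 uM positive control.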
# [8] = qHTS of pediatric cancer cell lines to identify multiple opportunities for drug repurposing: Primary screen for SK-N-MC cells (AID 1347093); conditions: SK-N-MC viability, CellTiter-Glo luminescence, 48 h; also: potency is read from the fitted curve at half-maximal effect;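 as to activity change, negative = cytotoxic: plate controls were DMSO neutral control for no effect and bortezomib for full effect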
# [9] = qHTS of pediatric cancer cell lines to identify multiple opportunities for drug repurposing: Primary screen for BT-37 cells (AID 1347094); conditions: BT-37 viability, CellTiter-Glo luminescence, 48 h; at 57.3 µM (top of the series) unless noted;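 also: plate controls were DMSO for no effect and bortezomib for full effect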
# Method in brief: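 Luminescence from CellTiter-Glo served as readout of metabolically active cells after 48 h compound exposure. Titrations: MIPE 11-point, from 0.78 nM; NPC 8-point, from 0.59 nM (final). Concentration-response curves came straight from the primary screen.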
# [10] = qHTS of pediatric cancer cell lines to identify multiple opportunities for drug repurposing: Primary screen for NB-EBc1 cells (AID 1347095); conditions: NB-EBc1 neuroblastoma viability, CellTiter-Glo luminescence, 48 h; at 92.7 µM (top of the series) unless noted;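 also: plate controls were DMSO neutral control for no effect and bortezomib for full effect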
# [11] = qHTS of pediatric cancer cell lines to identify multiple opportunities for drug repurposing: Primary screen for U-2 OS cells (AID 1347096); conditions: U-2 OS viability, CellTiter-Glo luminescence, 48 h; at 46 µM (top of the series) unless noted;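 also: plate controls were DMSO wells for no effect and bortezomib positive control wells for full effect; nearly all actives have a fitted effect of over 50% in size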
# Method in brief: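 Cells (500-1,000/well) rested 5 h, then received compounds for 48 h; metabolically active cells were measured by CellTiter-Glo luminescence. Final concentrations spanned up to 46 µM (MIPE, 11-point) or 0.59 nM-46 µM (NPC, 8-point) in primary screens, 11-point in follow-ups.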
# [12] = qHTS Assay for Identifying Gametocytocidal Compounds (AID 743244);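 also: % is scaled to controls: 0 for no effect and ±100 for the full control effect; actives lower the fluorescent signal which means gametocytes are killed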; conditions: P. falciparum 3D7 stage III-V gametocytes, alamarBlue, 72 h; hits give low values
# [13] = P-glycoprotein substrates identified in KB-3-1 adenocarcinoma cell line, qHTS therapeutic library screen (AID 1346986); conditions: KB-3-1 parental cells viability, CellTiter-Glo, 72 h; at 44.5 µM (top of the series); also: nearly all actives have a fitted effect of over 60% in size
# Method in brief: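 Dose-response cytotoxicity, KB-3-1 vs P-gp-high KB-8-5-11, no colchicine in assay medium. Read: CellTiter-Glo at 72 h.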
# [14] = qHTS assay to identify small molecule inhibitors of chordoma cells - UCH-2 (AID 1259356); conditions: UCH-2 chordoma viability, CellTiter-Glo ATP luminescence, 48 h; at 46.1 µM (top of the series) unless noted; also: % is scaled to controls: 0 for no effect and ±100 for the full control effect
# Source text: NIH Chemical Genomics Center [NCGC]
# Chordoma is a rare and slow growing tumor that can occur anywhere along the spine, from the base of the skull to the tailbone. Current treatment options for chordoma is surgery and radiation therapy for those who are not candidates for surgery. But chordomas tend to return in the same location or surrounding areas of the original tumor after surgery and/or radiation. Chemotherapy can slow down the progression of the tumor. As chordoma is slow growing, the general cytotoxic agents that kill fast growing cells are ineffective, and some patients have been reported to respond to molecularly targeted drugs.
# NCATS Pharmaceutical Collection (NPC) containing approximately 3000 clinically approved and investigational drugs were used to screen at 15 concentrations in a chordoma cell lines, UCH-2, to identify small molecule compounds that can inhibit chordoma cell growth.
# NCGC Assay Protocol Summary:
# Human chordoma cell line UCH-2 was dispensed at 800 per well in 4uL of culture medium into white solid bottom 1536-well plates (Corning Life Sciences, Corning, NY) using a Multidrop Combi (Thermo Scientific, Waltham, MA) dispenser. The assay plates were incubated at 37 C and 5% CO2 for an overnight, and then 23nL of compounds dissolved in DMSO and positive control were transferred using a Pintool station (Wako, San Diego, CA). Compound treatment was followed by the addition of 1uL of the combination compounds (1uM Auranofin, 500nM each of Camptothecin, Doxorubicin, Rubitecan, and Topotecan) and assay medium to each well of the assay plates using Flying Reagent Dispenser (FRD, Aurora Discovery, San Diego, CA). The assay plates were incubated at 37 C and 5% CO2 for 48hr. Then 5uL of CellTiter-Glo reagent (Promega Corporation, Madison, WI) was added to each well of the assay plates using FRD. After 30min incubation at room temperature, the luminescence signal was quantified using a ViewLux plate reader (PerkinElmer, Shelton, CT).
Compound,"activity change, negative = cytotoxicity [1]",max response [2],"activity change, negative = cytotoxicity [3]","activity change, negative = cytotoxic [4]","activity change, negative = cytotoxic [5]","activity change, negative = cytotoxic [6]","activity change, negative = cytotoxic [7]",Potency [8],"activity change, negative = cytotoxic [9]","activity change, negative = cytotoxic [10]","activity change, negative = cytotoxic [11]",max response [12],outcome [13],"activity change, negative = inhibition [14]"
Cc1cccc([N+](=O)[O-])c1[N+](=O)[O-],inactive: -5.4%,inactive: 1.41% and inactive: -2.66%,inactive: -3.21% and inactive: 1.75%,inactive: 10.1% [at 92.2 µM],inactive: 15.5%,inactive: 17.1% [at 92.7 µM],inactive: -17.9% [at 92.7 µM],active: 32.5 µM,inactive: 16.1% [at 116 µM],inactive: -11.2%,inactive: 10.6% [at 92.7 µM],,,
CCOP(=O)(CC)Oc1ccc([N+](=O)[O-])cc1 (stereo unspecified),,,,inactive: -14.4%,inactive: -11.8% [at 46 µM],inactive: 41.5%,inactive: -11.7%,inactive,inactive: -7.04%,inactive: 22.5% [at 46 µM],inactive: -2.96%,inactive: -20.3%,inactive,
Cc1c([N+](=O)[O-])cccc1[N+](=O)[O-],inactive: 2.31%,inactive: -3.23% and inactive: -6.3%,inactive: 3.16% and inactive: 4.38%,,,,,,,,,,,
O=[N+]([O-])c1cccc([N+](=O)[O-])c1,,inactive: 8.39% and inactive: -6.81%,inactive: -2.61% and inactive: -5.8%,inactive: 8.05% [at 92.2 µM],inactive: 13%,inactive: 48.5% [at 92.7 µM],inactive: 13.8% [at 92.7 µM],inactive,inactive: 15.1% [at 116 µM],inactive: 32.9%,inactive: 6.72% [at 92.7 µM],inactive: -1.37% and inactive: -7.98%,,inactive: 8.08%

# — PubChem BioAssay (NCATS)
